Experimental data reported in article PMC8524670 (Pharmacology Research & Perspectives, 2021).

Sequences of proteins named here, by UniProt entry; tags and fusion partners are left off. A change or cut given only in a name is not applied to a line headed by its entry.
UniProt P08183, whole entry: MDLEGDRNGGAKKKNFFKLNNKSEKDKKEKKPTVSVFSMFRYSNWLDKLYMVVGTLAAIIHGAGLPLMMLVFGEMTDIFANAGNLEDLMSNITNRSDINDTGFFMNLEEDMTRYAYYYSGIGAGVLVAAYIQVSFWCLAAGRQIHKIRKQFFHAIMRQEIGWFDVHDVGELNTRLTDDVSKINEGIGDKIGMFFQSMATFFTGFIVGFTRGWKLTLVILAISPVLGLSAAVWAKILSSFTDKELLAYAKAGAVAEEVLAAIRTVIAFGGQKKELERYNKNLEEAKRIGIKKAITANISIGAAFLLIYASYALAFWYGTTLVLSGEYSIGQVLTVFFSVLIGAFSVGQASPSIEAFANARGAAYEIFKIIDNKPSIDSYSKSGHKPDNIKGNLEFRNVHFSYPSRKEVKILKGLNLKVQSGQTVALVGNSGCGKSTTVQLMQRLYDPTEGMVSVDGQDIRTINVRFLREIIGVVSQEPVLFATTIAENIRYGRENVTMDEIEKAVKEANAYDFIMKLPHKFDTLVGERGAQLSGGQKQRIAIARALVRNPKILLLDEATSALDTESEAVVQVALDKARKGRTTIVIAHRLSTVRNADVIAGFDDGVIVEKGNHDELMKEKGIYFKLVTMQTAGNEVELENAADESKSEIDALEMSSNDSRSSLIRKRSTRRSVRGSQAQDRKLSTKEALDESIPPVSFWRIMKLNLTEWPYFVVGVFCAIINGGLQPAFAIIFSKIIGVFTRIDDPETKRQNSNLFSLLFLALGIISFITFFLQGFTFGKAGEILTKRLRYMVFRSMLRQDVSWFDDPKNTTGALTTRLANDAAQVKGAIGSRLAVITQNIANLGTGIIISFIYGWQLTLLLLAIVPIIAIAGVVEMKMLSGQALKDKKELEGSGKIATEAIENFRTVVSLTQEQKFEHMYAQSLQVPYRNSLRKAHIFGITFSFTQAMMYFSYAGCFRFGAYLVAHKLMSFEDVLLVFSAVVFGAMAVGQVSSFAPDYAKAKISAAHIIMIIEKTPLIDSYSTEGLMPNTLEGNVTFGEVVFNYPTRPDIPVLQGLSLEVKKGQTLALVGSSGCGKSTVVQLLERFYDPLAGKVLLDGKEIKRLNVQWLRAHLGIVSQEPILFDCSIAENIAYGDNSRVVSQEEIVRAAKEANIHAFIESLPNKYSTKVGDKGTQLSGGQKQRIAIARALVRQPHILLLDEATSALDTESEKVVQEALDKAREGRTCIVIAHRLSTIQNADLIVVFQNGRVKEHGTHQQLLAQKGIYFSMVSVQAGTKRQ
UniProt Q9UNQ0: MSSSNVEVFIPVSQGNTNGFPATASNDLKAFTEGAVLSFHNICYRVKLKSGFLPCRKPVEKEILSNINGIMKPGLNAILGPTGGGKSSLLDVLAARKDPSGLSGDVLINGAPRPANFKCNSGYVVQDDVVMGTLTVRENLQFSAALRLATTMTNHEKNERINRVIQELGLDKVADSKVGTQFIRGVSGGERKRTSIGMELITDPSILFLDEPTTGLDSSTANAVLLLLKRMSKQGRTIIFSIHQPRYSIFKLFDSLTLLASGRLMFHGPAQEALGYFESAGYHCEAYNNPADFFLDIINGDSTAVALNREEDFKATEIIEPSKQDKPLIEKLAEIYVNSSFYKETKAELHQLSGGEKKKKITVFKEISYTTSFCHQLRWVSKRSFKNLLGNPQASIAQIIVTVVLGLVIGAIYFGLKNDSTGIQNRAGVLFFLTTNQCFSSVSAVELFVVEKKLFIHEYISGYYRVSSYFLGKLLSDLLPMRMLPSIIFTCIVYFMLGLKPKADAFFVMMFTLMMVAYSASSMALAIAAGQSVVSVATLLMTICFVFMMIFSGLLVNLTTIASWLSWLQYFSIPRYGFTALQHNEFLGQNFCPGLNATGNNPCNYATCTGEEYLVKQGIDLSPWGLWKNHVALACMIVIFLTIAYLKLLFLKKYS

Key:
P-gp = P-gp (Homo sapiens, UniProt P08183); details: Caco‐2, digoxin 10 μM alone (vehicle control)
human BCRP = human BCRP (Homo sapiens, UniProt Q9UNQ0); details: novobiocin 500 µM

Papp A‐B of digoxin (P-gp)	Suppression of LFY uptake (human BCRP) [%]	Structure (SMILES)
0.700 ± 0.049 ×10^−6 cm s^−1		C[C@H]1O[C@@H](O[C@H]2[C@@H](O)C[C@H](O[C@H]3[C@@H](O)C[C@H](O[C@H]4CC[C@@]5(C)[C@H](CC[C@@H]6[C@@H]5C[C@@H](O)[C@]5(C)[C@@H](C7=CC(=O)OC7)CC[C@]65O)C4)O[C@@H]3C)O[C@@H]2C)C[C@H](O)[C@@H]1O [Digoxin, reference compound]
	98.9	CO[C@@H]1[C@@H](OC(N)=O)[C@@H](O)[C@H](Oc2ccc3c(O)c(NC(=O)c4ccc(O)c(CC=C(C)C)c4)c(=O)oc3c2C)OC1(C)C [Novobiocin]
